# Measured values published in ChEMBL document CHEMBL5338760, “Ψ and χ Angle Constrains at the C-Terminus Trp Position of the Melanotropin Tetrapeptide Ac-His-d-Phe-Arg-Trp-NH2 Lead to Potent and Selective Agonists at hMC1R and hMC4R” (J Med Chem, 2023).
# Amino acid sequences for entries named in this document (tags omitted). A change or cut given only in a name is not applied to a line headed by its entry.
# UniProt P33032: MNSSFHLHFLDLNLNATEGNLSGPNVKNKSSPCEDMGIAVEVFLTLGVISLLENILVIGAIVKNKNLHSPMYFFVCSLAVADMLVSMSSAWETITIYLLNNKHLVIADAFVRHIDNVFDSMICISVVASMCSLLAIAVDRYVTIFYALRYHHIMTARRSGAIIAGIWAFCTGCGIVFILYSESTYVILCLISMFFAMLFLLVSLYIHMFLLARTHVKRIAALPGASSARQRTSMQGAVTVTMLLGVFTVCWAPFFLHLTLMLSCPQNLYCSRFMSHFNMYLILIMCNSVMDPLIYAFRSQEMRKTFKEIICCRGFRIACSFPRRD
# UniProt P41968: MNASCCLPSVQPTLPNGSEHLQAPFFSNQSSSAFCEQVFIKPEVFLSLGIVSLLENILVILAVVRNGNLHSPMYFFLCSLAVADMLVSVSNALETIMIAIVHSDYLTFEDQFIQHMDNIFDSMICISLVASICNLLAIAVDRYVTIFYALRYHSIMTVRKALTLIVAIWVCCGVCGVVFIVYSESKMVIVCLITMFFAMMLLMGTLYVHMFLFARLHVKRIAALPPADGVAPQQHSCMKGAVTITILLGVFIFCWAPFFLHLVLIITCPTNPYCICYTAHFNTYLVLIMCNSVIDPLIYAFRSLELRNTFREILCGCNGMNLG
# UniProt Q01726: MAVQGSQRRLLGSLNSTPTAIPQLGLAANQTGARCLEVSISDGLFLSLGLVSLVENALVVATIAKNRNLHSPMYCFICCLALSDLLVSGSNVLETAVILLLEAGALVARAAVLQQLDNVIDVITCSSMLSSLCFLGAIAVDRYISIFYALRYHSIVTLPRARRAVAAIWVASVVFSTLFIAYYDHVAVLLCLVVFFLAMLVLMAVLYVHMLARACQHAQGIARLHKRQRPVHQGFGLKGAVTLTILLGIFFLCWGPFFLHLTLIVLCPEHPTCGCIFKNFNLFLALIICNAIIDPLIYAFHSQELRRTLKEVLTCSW
# Columns and labels:
# Melanocortin receptor 5 [1] = target: T1, Melanocortin receptor 5 (Homo sapiens, UniProt P33032); assay: Agonist activity at human MC5R stably overexpressing in HEK293 cells assessed as intracellular acumulation of cAMP level incubated at 10 uM for 30 mins measured by microbeta 2 microplate counter analysis relative to MT-II; type: functional, cell-based
# Melanocortin receptor 3 [2] = target: T2, Melanocortin receptor 3 (Homo sapiens, UniProt P41968); assay: Agonist activity at human MC3R stably overexpressing in HEK293 cells assessed as intracellular acumulation of cAMP level incubated at 10 uM for 30 mins measured by microbeta 2 microplate counter analysis relative to MT-II; type: functional, cell-based
# [3] = target: T3, Melanocyte-stimulating hormone receptor (Homo sapiens, UniProt Q01726); assay: Displacement of [I125] NDP-alpha-MSH from human MC1R stably overexpressing in HEK293 cells in presence of [I125] labeled NDP-alpha-MSH treated at 10 uM for 40 mins measured by microbeta 2 microplate counter analysis relative to control; type: cell-based
# [4] = target: T3, Melanocyte-stimulating hormone receptor; assay: Agonist activity at human MC1R stably overexpressing in HEK293 cells assessed as intracellular acumulation of cAMP level incubated at 10 uM for 30 mins measured by microbeta 2 microplate counter analysis relative to MT-II; type: functional, cell-based
# Melanocortin receptor 5 [5] = target: T1, Melanocortin receptor 5; assay: Displacement of [I125] NDP-alpha-MSH from human MC5R stably overexpressing in HEK293 cells in presence of [I125] labeled NDP-alpha-MSH treated at 10 uM for 40 mins measured by microbeta 2 microplate counter analysis relative to control; type: cell-based
# Melanocortin receptor 3 [6] = target: T2, Melanocortin receptor 3; assay: Displacement of [I125] NDP-alpha-MSH from human MC3R stably overexpressing in HEK293 cells in presence of [I125] labeled NDP-alpha-MSH treated at 10 uM for 40 mins measured by microbeta 2 microplate counter analysis relative to control; type: cell-based
SMILES,Emax (Melanocortin receptor 5 [1]) [%],Emax (Melanocortin receptor 3 [2]) [%],Activity [3] [%],Emax [4] [%],Activity (Melanocortin receptor 5 [5]) [%],Activity (Melanocortin receptor 3 [6]) [%],Emax (Melanocortin receptor 3 [2]; filed as agonist) [%],Emax ([4]; filed as agonist) [%],Activity (Melanocortin receptor 5 [5]; filed as agonist) [%],Activity (Melanocortin receptor 3 [6]; filed as agonist) [%]
CCCC[C@H](NC(=O)[C@@H](Cc1ccccc1)NC(=O)[C@H](Cc1c[nH]cn1)NC(C)=O)C(=O)N[C@H]1Cn2nncc2CNC1=O,0,0,0,0,0,0,–,–,–,–
CCCC[C@H](NC(=O)[C@@H](Cc1ccccc1)NC(=O)[C@H](Cc1c[nH]cn1)NC(C)=O)C(=O)N[C@H]1Cc2c([nH]c3ccccc23)CNC1=O,0,–,0,–,0,0,57,100,–,–
CC(=O)N[C@@H](Cc1c[nH]cn1)C(=O)N[C@H](Cc1ccc(C(F)(F)F)cc1)C(=O)N[C@@H](CCCNC(=N)N)C(=O)N[C@H]1Cc2c([nH]c3ccccc23)CNC1=O,0,0,–,–,–,–,–,–,100,43
CC(=O)N[C@@H](Cc1c[nH]cn1)C(=O)N[C@H](Cc1ccccc1)C(=O)N[C@@H](CCCNC(=N)N)C(=O)N[C@H]1Cc2ccccc2CNC1=O,0,0,0,0,0,0,–,–,–,–
CC(=O)N[C@@H](Cc1c[nH]cn1)C(=O)N[C@H](Cc1ccccc1)C(=O)N[C@@H](CCCNC(=N)N)C(=O)N[C@H]1Cn2nncc2CNC1=O,0,–,–,–,–,0,55,–,48,–
CCCC[C@H](NC(=O)[C@@H](Cc1ccccc1)NC(=O)[C@H](Cc1c[nH]cn1)NC(C)=O)C(=O)N[C@H]1Cc2ccccc2CNC1=O,0,0,0,0,0,0,–,–,–,–
